9 molecules from PMC8036510, “The Inhibitory Effects of Plant Derivate Polyphenols on the Main Protease of SARS Coronavirus 2 and Their Structure–Activity Relationship” (Molecules, 2021) can be followed below.

For experiment [1], the target named is T1, SARS-CoV-2 M^pro (Severe acute respiratory syndrome coronavirus 2, UniProt P0DTD1). The experiment is described as follows: biochemical.
The target of experiment [2] is T1, SARS-CoV-2 M^pro.
The target of experiment [3] is T1, SARS-CoV-2 M^pro. Nature of the experiment: Effect of DMSO on SARS-CoV-2 M^pro activity. Type of experiment: biochemical. The conditions noted are these: 37 °C, 30 min.
For experiment [4], the target named is T1, SARS-CoV-2 M^pro. Nature of the experiment: Combinative inhibitory effects of tannic acid, puerarin, daidzein and myricetin on M^pro. It is filed as biochemical.

Molecules are shown by their SMILES. “And” between values parts separate entries of the source, which are not always exact repeats. Equal values may be shown once. Some results are limits rather than exact numbers.

For orientation: IC50 means the point on the concentration scale where inhibition reaches its midpoint. A high value points to weaker potency in that assay. For `O=C1c2c(O)cc(O)cc2OC(c2cc(O)c(OC3OC(CO)C(O)C(O)C3O)c(O)c2)C1O` (stereo not drawn), the IC50 against SARS-CoV-2 M^pro [1] is 195 ± 5 µM. In addition, the inhibition on SARS-CoV-2 M^pro [2] (pH 7.5) was > 50% and 50%.
Molecule `O=c1c(O[C@@H]2O[C@H](CO)[C@@H](O)[C@H](O)[C@H]2O)c(-c2ccc(O)cc2)oc2cc(O)cc(O)c12` [Astragalin] yielded an IC50 at SARS-CoV-2 M^pro [1] of 143 ± 9 µM.
The same measure, in the same setting: in the case of `O=C(O)/C=C/c1ccc(O)c(O)c1` [Caffeic acid] it was 197 ± 1 µM.
With `C[S+](C)[O-]` [DMSO, Dimethylsulfoxide], the “M^pro activity in the presence of DMSO” value was “not detected” on SARS-CoV-2 M^pro [3] (50% (v/v) DMSO) and “stable” on SARS-CoV-2 M^pro [3] (up to 10% (v/v) DMSO).
`O=C1C[C@@H](c2ccc(O)cc2)Oc2cc(O)cc(O)c21` [Naringenin] gave a half-maximal inhibitory concentration (IC50) on SARS-CoV-2 M^pro [1] of 150 ± 10 µM. Also, the “inhibitory activity, fold higher than that of naringin” value on SARS-CoV-2 M^pro [2] (200 μM, relative to naringin) came out at 3.2 fold.
With `O=c1c(-c2ccc(O)cc2)coc2c([C@@H]3O[C@H](CO)[C@@H](O)[C@H](O)[C@H]3O)c(O)ccc12` [Puerarin], the IC50 against SARS-CoV-2 M^pro [1] turned out to be 42 ± 2 µM. Further, the inhibition at 45 µM on SARS-CoV-2 M^pro [4] (read-out: M^pro inhibitory activity of flavonoids) is 50.8 ± 2%. Moreover, the inhibition at 20 µM on SARS-CoV-2 M^pro [4] (read-out: inhibitory effect of a single polyphenol on M^pro) was found to be 23 ± 5%.
In the case of `O=c1c(O)c(-c2ccc(O)c(O)c2)oc2cc(O)c(O)c(O)c12` [Quercetagenin], the IC50 at SARS-CoV-2 M^pro [1] was determined as 145 ± 6 µM.
`Oc1ccc(/C=C/c2cc(O)cc(O)c2)cc1` [Resveratrol] displayed an IC50 at SARS-CoV-2 M^pro [1] of 103 ± 6 µM.
On to `O=c1cc(-c2ccc(O)cc2)oc2c([C@@H]3O[C@H](CO)[C@@H](O)[C@H](O)[C@H]3O)c(O)cc(O)c12` [Vitexin], for which the IC50 at SARS-CoV-2 M^pro [1] was determined as 180 ± 6 µM. Besides, on SARS-CoV-2 M^pro [2] (200 μM, relative to apigenin), the “inhibitory activity on M^pro, fold that of apigenin” value was 2 fold.
